Reference: patent US4975434A, “Antiviral and anticancer cyclopentenyl cytosine” (priority 1989, dated 1990)

Columns and labels:
[1] = test system: ATH8 host cell line
[2] = test system: HIV (AIDS virus); type: cell-based

Nc1ccn([C@@H]2C=C(CO)[C@@H](O)[C@H]2O)c(=O)n1 [CPE-C]
cytotoxicity to host cell line [1]: potent cytotoxicity | anti-HIV (retroviral) activity [2]: No anti-HIV (retroviral) activity
